Target: wild-type un-phosphorylated FGFR3 protein (Homo sapiens, UniProt P22607)
Assay: FGFR Enzymatic Assay (FRET peptide phosphorylation)
Conditions: read-out: FGFR3 IC50, pre-incubated for 4 hours, tested form: TFA

Protein sequences, listed by entry. Tags and fused reporters are not part of them. Residues count along the entry.
UniProt P22607, 23-806 limits assumed: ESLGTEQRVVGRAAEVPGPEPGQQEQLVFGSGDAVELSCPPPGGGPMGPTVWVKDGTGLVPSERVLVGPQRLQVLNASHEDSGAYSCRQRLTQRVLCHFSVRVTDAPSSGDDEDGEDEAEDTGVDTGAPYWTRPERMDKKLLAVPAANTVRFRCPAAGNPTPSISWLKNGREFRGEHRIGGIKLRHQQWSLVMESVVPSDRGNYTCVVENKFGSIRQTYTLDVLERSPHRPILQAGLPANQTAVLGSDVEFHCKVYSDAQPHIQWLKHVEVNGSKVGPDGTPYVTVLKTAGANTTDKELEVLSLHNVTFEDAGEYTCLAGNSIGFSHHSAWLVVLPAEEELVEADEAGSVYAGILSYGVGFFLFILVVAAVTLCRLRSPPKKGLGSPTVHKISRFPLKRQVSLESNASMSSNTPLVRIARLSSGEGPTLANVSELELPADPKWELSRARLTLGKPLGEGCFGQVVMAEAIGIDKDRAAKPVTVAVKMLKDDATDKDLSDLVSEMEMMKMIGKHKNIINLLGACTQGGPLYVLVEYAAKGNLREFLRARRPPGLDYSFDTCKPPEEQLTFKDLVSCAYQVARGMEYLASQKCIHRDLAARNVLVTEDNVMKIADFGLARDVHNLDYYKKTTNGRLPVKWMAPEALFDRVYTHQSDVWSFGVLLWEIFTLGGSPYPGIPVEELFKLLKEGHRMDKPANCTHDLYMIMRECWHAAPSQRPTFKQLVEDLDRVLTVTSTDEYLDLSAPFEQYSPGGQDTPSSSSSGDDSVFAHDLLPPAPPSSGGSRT

Cn1cnc(-c2cnc3ccn4c(C(N)=O)c(-c5c(Cl)cccc5Cl)nc4c3c2)c1
IC50: 1 to 10 nM
